Experiments:
V777L ErbB2 = V777L ErbB2 (Homo sapiens, UniProt P04626, V777L); experiment: Western blot pY1248, V777L ErbB2 in transfected HBMECs; conditions: 0, 5, 10 or 20 μM, 48 h; tested form: HCl
Description: (§1) HBMECs cells were transfected with plasmids encoding WT, V777L or V842I and treated with 0, 5, 10 or 20 μM ZU or EB1 for 48 h. ErbB2 activation was then analyzed by western blot analysis using a phospho-ErbB2-specific antibody (pY1248) and a total ErbB2 antibody. Histograms show optical density quantification.

[1] = tested on: human breast cancer BT474 cells; experiment: BT474 orthotopic xenograft in mammary fat pad of mice; conditions: tested form: HCl
Description: 5.10^6 BT474 cells were implanted orthotopically in the mammary fat pad of NOD.Cg-Prkdc scid/J mice, in the presence of estradiol supplement. After 4 weeks, mice were injected with ZU (N=10, 5 mg/kg per day for 5 days a week, followed by 3 mg/kg for 5 days a week during three weeks for N=6) or vehicle (N=10, 10% DMSO in PBS). Mice weight and tumor volume were measured 3 and 2 times a week respectively.
5.10^6 BT474 cells were implanted orthotopically in the mammary fat pad of NOD.Cg-Prkdc scid/J mice, in the presence of estradiol supplement. Nineteen days after implantation, treatment began and mice were injected i.p. with […] ZU (5 mg/kg per day for 3 days a week, during three weeks for N=9), 4 mg/kg ZU (5 days a week during three weeks, N=8) or vehicle (N=9, 10% DMSO in PBS). Mice weight and tumor volume were measured 3 and 2 times a week respectively.
5.10^6 BT474 cells were implanted orthotopically in the mammary fat pad of NOD.Cg-Prkdc scid/J mice, in the presence of estradiol supplement. After 4 weeks, mice were injected with EB1 3 mg/kg (N=8), 5 mg/kg (N=6) or vehicle (N=8, 10% DMSO in PBS) twice a day for 5 days a week (2×D), during 2 weeks then once per day (1×D) during 3 days. Mice weight and tumor volume were measured 3 and 2 times a week respectively.

SKBR3 = experiment: MTT cell proliferation, SKBR3; conditions: tested form: HCl
Description: We then analyzed the ability of ZU and EB1 and their derivatives to decrease the ErbB2-dependent cell proliferation. We used the ErbB2-overexpressing human breast cancer cell lines SKBR3 and BT474, as well as two non ErbB2-dependent breast cancer cell lines MCF7 and MDA-MB-231 and normal human endothelial cells (HBMEC) as a control, to discard compounds presenting non-specific toxic effects.
SKBR3, BT474, MCF-7, MDA-MB-231 and HBMEC cells were treated with the compounds as indicated, and cell proliferation was determined each day during 3 days using an MTT assay. Non treated cells were included as a negative control.
A solution of ZU in cis conformation was mixed to a solution of ZU in trans conformation (1:1) to obtain ZU in a 50/50 cis/trans conformation and their respective effects on ErbB2 activation and ErbB2-dependent cell proliferation were analyzed as previously by dot blot analysis using an anti-phosphotyrosine antibody (clone 4G10) and by MTT assays in the ErbB2-overexpressing breast cancer cell line SKBR3, BT474, or HBMEC as a control.

BT474 = experiment: Soft agar colony formation, BT474; conditions: 5 or 10 μM, 6 weeks; tested form: HCl
Description: A bottom layer of 0.8% agarose in DMEM supplemented with 20% SVF and penicillin/streptomycin was added to 24 well plates before seeding 25.10^3 SKBR3 or BT474 cells/well in a 0.6% agarose top layer. Cells were left untreated or treated with 5 or 10 μM ZU or EB1 or 5 μM AG1478 (a non-specific ErbB2 kinase inhibitor) as a positive control. Treatments were renewed 3 times a week. After 6 weeks, the number of colonies and their size were quantified using image J software. The colony formation is illustrated for each condition. Data are presented as mean±SEM.

V659E ErbB2 = V659E ErbB2 (Homo sapiens, UniProt P04626, V659E); experiment: Western blot pY1248, V659E ErbB2 in transfected HBMECs; conditions: 0, 5, 10 or 20 μM, 24 h; tested form: HCl
Description: HBMECs cells were transfected with plasmids encoding WT, ΔEBM (a form of ErbB2 carrying mutations in the juxtamembrane domain and unable to bind to the Ezrin FERM domain), V659E or p95 ErbB2 and treated with 0, 5, 10 or 20 μM ZU for 24 h. ErbB2 activation was then analyzed by western blot analysis using a phospho-ErbB2-specific antibody (pY1248) and a tubulin antibody as a loading control. Histograms show optical density quantification.

[2] = tested on: EGFR/ErBB2 or ErbB3/ErbB2 heterodimers-dependent signalling pathways; experiment: Ligand-dependent ErbB2 activation (EGF or HRG) in HBMECs, western blot; conditions: pre-treatment 1 h or 24 h; tested form: HCl
Description: In physiological conditions, ErbB2 activation occurs in heterodimer with the other ErbB family members, such as the EGFR in response to EGF stimulation or ErbB3 in response to heregulin (HRG) stimulation. We therefore addressed whether ZU, EB1 and their derivatives also affected the ligand-dependent physiological ErbB2 activation.
16 h-starved HBMECs cells were pre-treated or not for 1 h or 24 h with ZU, […] and their derivatives or AG1478 before EGF (50 ng/mL) or HRG1β (100 ng/mL) stimulation for 5 minutes. The activation of EGFR/ErBB2 or ErbB3/ErbB2 heterodimers-dependent signalling pathways was then analysed by western blot experiments using pAkt, Akt, pERK, ERK or 4G10 antibodies.

V842I ErbB2 = V842I ErbB2 (Homo sapiens, UniProt P04626, V842I); experiment: Western blot pY1248, V842I ErbB2 in transfected HBMECs; conditions: 0, 5, 10 or 20 μM, 48 h; tested form: HCl
Description: as §1

For `OCCN1CCN(CC/C=C2/c3ccccc3Sc3ccc(Cl)cc32)CC1`, the “ErbB2 V777L activation (in words)” value (V777L ErbB2) was “potently decrease”, the “tolerability in mice (in words)” value ([1]; 5 mg/kg 3 days a week or 4 mg/kg 5 days a week) was “well tolerated” and the “tumor progression in vivo (in words)” value ([1]; 5 mg/kg per day 5 days a week, followed by 3 mg/kg 5 days a week during three weeks) was “completely blocked tumor progression”. The “mice dizzy or sleepy for long, lost weight and finally died” value ([1]; 5 mg/kg, after several injections) was 3 mice out of 10, the “tumor progression in vivo (in words)” value ([1]; i.p., 5 mg/kg per day 3 days a week, or 4 mg/kg 5 days a week, three weeks) was “dramatically reduced tumor progression” and the “tolerability in mice (in words)” value ([1]; switched at 3 mg/kg) was “well supported”. For the same compound, the “reduction of SKBR3 proliferation” value (SKBR3; 5 μM, day 2 and 3) was 50%, the “Cell proliferation at d 3 SKBR3 Max inhibition, %” value (SKBR3; day 3) was 46.2% and the EC50 (SKBR3; read-out: Cell proliferation at d 3 SKBR3 EC50, day 3) was 14.1 µM. For the same compound, the IC50 (SKBR3; read-out: IC50 SKBR3 proliferation) was 14 µM, the “anchorage-independent growth of BT474 (in words)” value (BT474) was “inhibited the anchorage-independent growth” and the “activation of V659E ErbB2 (in words)” value (V659E ErbB2) was “decreased the activation”. For the same compound, the “ligand-dependent ErbB2 activation induced by EGF or HRG stimulation (in words)” value [2] was “did not block” and the “ErbB2 V842I activation (in words)” value (V842I ErbB2) was “potently decrease”.

From patent publication US10766873B2, “Zuclopenthixol hydrochloride derivatives and Ebselen derivatives as ErbB2 inhibitors” (Centre National de la Recherche Scientifique (CNRS), priority 2016, dated 2020)
